Screens (PubChem)
Shown are actives, neighbours in structure and some others; about 1.7% of the full set was active somewhere.
dFosB act-1 – activators of mouse delta FosB homodimer | purified delta FosB, TAMRA-CDK5 oligo fluorescence polarization; percent of positive-control signal above neutral wells | activation, % at 25 µM | actives 0.99% (n = 340,000);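 active means mean activation above about 17%, with every replicate also reaching it, limit read from the data, passing the limit was not always enough; inconclusive means only one of the two conditions met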
CDK5 inh – CDK5/p35 (human) kinase inhibition. Q00535+Q15078. Recombinant CDK5/p35, ADP-Glo luminescence, 60 min. inhibition, % at 10 µM. actives 0.01% (n = 330,000);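 active means highest replicate inhibition of at least 50% and at least 75% of replicates reaching 50%; inconclusive means only one of the two criteria met; inactive means both criteria failed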;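 further: plate controls were DMSO neutral control for no effect and GW8510 at 10 µM for full effect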
CAL PDZ FP-1 – inhibitors of human CAL PDZ peptide binding | Q9HD26 | purified CAL PDZ, TMR-peptide fluorescence polarization, 1 h | inhibition, % at 20 µM | actives 0.02% (n = 330,000);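 active means highest replicate inhibition of at least 40%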;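 further: plate controls were DMSO neutral control wells for no effect and unlabeled competitor peptide control wells for full effect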
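Material – purified CerCALP PDZ construct · Detection – FP readout, S and P plane fluorescence · Measure – percent inhibition from loss of millipolarization · Controls – unlabelled peptide for full inhibition, DMSO wells as neutral · Probe or stimulus – TMR-labelled reporter peptide T*-PRC34 bound in PDZ groove · Times – 1 h at RT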
Yeast UUG start – yeast start codon fidelity modulation | S. cerevisiae UUG-firefly luciferase reporter, luminescence/redox ratio | activity score, % at 18.7 µM | hit rate 0.13% among 350,000 | AID 602363;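 active means replicate mean at a twofold rise or more, about +100% in these data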;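 further: firefly luciferase made from a UUG start codon reports start codon fidelity; reporter light over untreated wells divided by growth signal over untreated wells; some hits fall short of that in this replicate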
CAL PDZ FP-2 – blocks peptide binding to the human CAL PDZ domain. Q9HD26. purified CAL PDZ, TMR-peptide fluorescence polarization, 1 h. inhibition, % at 24.9 µM. actives 0.92% (n = 300,000). AID 602252;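 active means mean inhibition of at least 30% with at least half of replicates also reaching 30%; inconclusive means no clear call, values can overlap the other calls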;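 further: 0% = DMSO neutral control and 100% = excess unlabeled competitor peptide PRC23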
DYRK1A inh – inhibitors of rat Dyrk1A kinase | Q63470 | ADP-Glo luminescence, NFATc1 peptide | inhibition, % at 12.5 µM | actives 0.43% (n = 310,000); in the data active means inhibition above about 50%;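 further: plate controls were vehicle with enzyme for no effect and no enzyme for full effect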
dFosB act-2 – delta FosB (mouse) homodimer activation. purified delta FosB, TAMRA-CDK5 oligo fluorescence polarization; normalised: neutral wells 0, positive control 100. 2,400 tested, under 10 active. AID 588690. activation, % at 24.9 µM. shares compounds with dFosB act-1;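 active means highest replicate activation at or above 34% and every replicate reaching that threshold; inconclusive means meets only one of the two criteria; inactive means meets neither criterion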;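 further: higher polarization means more probe DNA bound by delta FosB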
ADP-Glo artifact – ADP-Glo luciferase interference, Dyrk1A counter-screen. shares compounds with DYRK1A inh. ADP-Glo luciferase artifact assay, no Dyrk1A, luminescence. AC50, µM (titrated, usually from 12 µM), inactives show at the highest dose activity change, negative = inhibition. 1,300 tested, under 10 active. AID 588348;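 active means fitted half-maximal dose AC50 no more than ten times the top valid tested dose, with luminescence dropping as dose rises; inconclusive means poor fit, or flat fit with 30 to 70% inhibition; inactive means the rest, signal increases included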
Active calls of the source: *.

The first three compounds, ahead of the listing:
COc1ccc(-c2ccc([C@H]3[C@@H](CO)N4CCCCN(C(=O)Cc5ccccc5)C[C@@H]34)cc2)cc1 was read as Yeast UUG start 17.
`CN(C)c1ccc(C=C2C(=O)NC(=S)NC2=O)cc1` gave dFosB act-1 9, CDK5 inh 0, CAL PDZ FP-1 0, Yeast UUG start -24 and CAL PDZ FP-2 185*.
For CN(C)c1ccc(C=C2C(=O)NC(=O)NC2=O)cc1 the results were dFosB act-1 -7, CDK5 inh -2, CAL PDZ FP-1 0, Yeast UUG start -2, CAL PDZ FP-2 -3 and DYRK1A inh 5.

This part in full (from the top)
COc1ccc(-c2ccc([C@H]3[C@@H](CO)N4CCCCN(C(=O)Cc5ccccc5)C[C@@H]34)cc2)cc1 was read as Yeast UUG start 17.
`CN(C)c1ccc(C=C2C(=O)NC(=S)NC2=O)cc1` gave dFosB act-1 9, CDK5 inh 0, CAL PDZ FP-1 0, Yeast UUG start -24 and CAL PDZ FP-2 185*.
For CN(C)c1ccc(C=C2C(=O)NC(=O)NC2=O)cc1 the results were dFosB act-1 -7, CDK5 inh -2, CAL PDZ FP-1 0, Yeast UUG start -2, CAL PDZ FP-2 -3 and DYRK1A inh 5.
`CCOc1cc2c(cc1OCC)-n1cccc1C(c1ccc(F)cc1)NC2` (stereo not given) gave dFosB act-1 -2, CDK5 inh -1, CAL PDZ FP-1 -1, Yeast UUG start 14, CAL PDZ FP-2 -9 and DYRK1A inh -6.
`CCOc1cc2c(cc1OCC)-n1cccc1C(c1ccc(C(C)C)cc1)NC2` (stereo not given) gave dFosB act-1 24*, CDK5 inh -6, Yeast UUG start 18, CAL PDZ FP-2 -5 and DYRK1A inh 5.
Screening COC(=O)[C@H]1[C@H](CO)[C@H]2Cn3c(ccc(-c4ccccc4)c3=O)[C@@H]1N2CC1CC1 returned Yeast UUG start 1.
`CCC(C)N1C(=O)/C(=C\c2cc3c4c(c2)CCCN4CCC3)C(=O)NC1=S` (stereo not given) gave dFosB act-1 -7, CAL PDZ FP-1 0, Yeast UUG start -22, CAL PDZ FP-2 65* and DYRK1A inh 6.
For Cc1ccc(-n2c(O)c(C=NC3CCCCC3N)c(=O)[nH]c2=O)cc1C (stereo not given) the results were dFosB act-1 2, CDK5 inh 0, CAL PDZ FP-1 -2, Yeast UUG start -8, CAL PDZ FP-2 -2 and DYRK1A inh -2.
Screening Cc1ccc(-n2c(O)c(C=NC3CCCC3)c(=O)[nH]c2=O)c(C)c1 returned dFosB act-1 -3, CDK5 inh 0, CAL PDZ FP-1 0, Yeast UUG start 7, CAL PDZ FP-2 49* and DYRK1A inh 1.
COc1ccc(C(CNC(=O)Cc2ccc(Cl)c(Cl)c2)N2CCCCC2)cc1 (stereo not given) was read as dFosB act-1 -4, CDK5 inh 0, CAL PDZ FP-1 0, Yeast UUG start 0, CAL PDZ FP-2 61* and DYRK1A inh 0.
For C=CC1CN2CCC1CC2C(OC(C)=O)c1ccnc2ccc(OC)cc12 (stereo not given) the results were dFosB act-1 -5, CDK5 inh -1, CAL PDZ FP-1 -1 and CAL PDZ FP-2 58*.
`CC[C@H]1CN2CCC1C[C@@H]2[C@H](O)c1ccnc2ccc(OC)cc12` (stereo not given in full) gave dFosB act-1 -7, CDK5 inh 0, CAL PDZ FP-1 -1, Yeast UUG start -1, CAL PDZ FP-2 5 and DYRK1A inh -5.
O=C1CC=C2C3CC4N(CCC45c4cc(O)c(O)cc4N1C25)CC3=CCBr (stereo not given) was read as dFosB act-1 51*, CDK5 inh 24, CAL PDZ FP-1 1, CAL PDZ FP-2 0 and DYRK1A inh 0.
`CN1/C(=C\C=Nc2ccccc2)C(C)(C)c2ccccc21` gave dFosB act-1 26*, CDK5 inh 1, CAL PDZ FP-1 -1, Yeast UUG start 5, CAL PDZ FP-2 1, DYRK1A inh -2 and dFosB act-2 6.
O=C(/C=C/c1c[nH]c2ccccc12)c1c(O)n(CCc2ccccc2)c(=O)[nH]c1=O was read as dFosB act-1 22*, CDK5 inh -4, CAL PDZ FP-1 -1, Yeast UUG start -11, DYRK1A inh 8 and dFosB act-2 inconclusive.
Screening NC(N)=Nc1ccc2[nH]c3c(c2c1)C[C@@]1(O)[C@H]2Cc4ccc(O)c5c4[C@@]1(CCN2CC1CC1)C3O5 (stereo not given in full) returned dFosB act-1 45*, CDK5 inh 0, CAL PDZ FP-1 0, Yeast UUG start 2, CAL PDZ FP-2 -3, DYRK1A inh -13 and dFosB act-2 5.
For Cc1cc(NC(=O)COC(=O)c2c(C)nn(Cc3ccccc3Cl)c2Cl)no1 the results were dFosB act-1 46*, CDK5 inh 0, CAL PDZ FP-1 0, CAL PDZ FP-2 -4, DYRK1A inh -1 and dFosB act-2 -13.
`Cc1cc(NC(=O)COC(=O)c2c(C)nn(Cc3ccccc3)c2C)no1` gave dFosB act-1 -2, CDK5 inh 2, CAL PDZ FP-1 -1, Yeast UUG start -18, CAL PDZ FP-2 0 and DYRK1A inh -8.
`O=C(Cc1ccccc1)N1CCCCN2[C@H](CO)[C@@H](c3ccc(C#Cc4ccccc4)cc3)[C@H]2C1` gave Yeast UUG start 27.
CCCCCn1c(=O)c(C(=O)Nc2ccccc2S(N)(=O)=O)c(O)c2ccccc21 was read as dFosB act-1 63*, CDK5 inh 0, CAL PDZ FP-1 1, CAL PDZ FP-2 0, DYRK1A inh -1 and dFosB act-2 inconclusive.
For CCCCn1c(=O)c(C(=O)Nc2ccccc2S(N)(=O)=O)c(O)c2ccccc21 the results were dFosB act-1 -12, CDK5 inh -3, CAL PDZ FP-1 -1, Yeast UUG start -21 and DYRK1A inh 4.
`CCCC#Cc1ccc([C@@H]2[C@H]3CN(C(=O)Cc4ccccn4)CCCCN3[C@H]2CO)cc1` gave Yeast UUG start 23.
Screening C[N+]1=C(/C=C/Nc2ccccc2)C(C)(C)c2ccccc21 returned dFosB act-1 23*, CDK5 inh -1, CAL PDZ FP-1 0, CAL PDZ FP-2 -4, DYRK1A inh -4 and dFosB act-2 inconclusive.
`CCN1/C(=C/C=C/C2=[N+](CC)c3ccccc3C2(C)C)C(C)(C)c2ccccc21` gave Yeast UUG start -35.
For CN(C)CC#Cc1ccc([C@@H]2[C@H]3CN(C(=O)Cc4ccccn4)CCCCN3[C@H]2CO)cc1 the results were Yeast UUG start -7.
`COc1cc2c(cc1O)CC1c3c(cc(O)c(OC)c3-2)CCN1C` (stereo not given) gave dFosB act-1 -5, CDK5 inh 2, CAL PDZ FP-1 0, Yeast UUG start -8, CAL PDZ FP-2 5, DYRK1A inh 70* and ADP-Glo artifact 11%.
